IC50 data for 1 compound are collected here from paper PMC2442905 (2008).

Sequences of proteins named here, by UniProt entry; tags and fusion partners are left off. A change or cut given only in a name is not applied to a line headed by its entry.
UniProt Q12809: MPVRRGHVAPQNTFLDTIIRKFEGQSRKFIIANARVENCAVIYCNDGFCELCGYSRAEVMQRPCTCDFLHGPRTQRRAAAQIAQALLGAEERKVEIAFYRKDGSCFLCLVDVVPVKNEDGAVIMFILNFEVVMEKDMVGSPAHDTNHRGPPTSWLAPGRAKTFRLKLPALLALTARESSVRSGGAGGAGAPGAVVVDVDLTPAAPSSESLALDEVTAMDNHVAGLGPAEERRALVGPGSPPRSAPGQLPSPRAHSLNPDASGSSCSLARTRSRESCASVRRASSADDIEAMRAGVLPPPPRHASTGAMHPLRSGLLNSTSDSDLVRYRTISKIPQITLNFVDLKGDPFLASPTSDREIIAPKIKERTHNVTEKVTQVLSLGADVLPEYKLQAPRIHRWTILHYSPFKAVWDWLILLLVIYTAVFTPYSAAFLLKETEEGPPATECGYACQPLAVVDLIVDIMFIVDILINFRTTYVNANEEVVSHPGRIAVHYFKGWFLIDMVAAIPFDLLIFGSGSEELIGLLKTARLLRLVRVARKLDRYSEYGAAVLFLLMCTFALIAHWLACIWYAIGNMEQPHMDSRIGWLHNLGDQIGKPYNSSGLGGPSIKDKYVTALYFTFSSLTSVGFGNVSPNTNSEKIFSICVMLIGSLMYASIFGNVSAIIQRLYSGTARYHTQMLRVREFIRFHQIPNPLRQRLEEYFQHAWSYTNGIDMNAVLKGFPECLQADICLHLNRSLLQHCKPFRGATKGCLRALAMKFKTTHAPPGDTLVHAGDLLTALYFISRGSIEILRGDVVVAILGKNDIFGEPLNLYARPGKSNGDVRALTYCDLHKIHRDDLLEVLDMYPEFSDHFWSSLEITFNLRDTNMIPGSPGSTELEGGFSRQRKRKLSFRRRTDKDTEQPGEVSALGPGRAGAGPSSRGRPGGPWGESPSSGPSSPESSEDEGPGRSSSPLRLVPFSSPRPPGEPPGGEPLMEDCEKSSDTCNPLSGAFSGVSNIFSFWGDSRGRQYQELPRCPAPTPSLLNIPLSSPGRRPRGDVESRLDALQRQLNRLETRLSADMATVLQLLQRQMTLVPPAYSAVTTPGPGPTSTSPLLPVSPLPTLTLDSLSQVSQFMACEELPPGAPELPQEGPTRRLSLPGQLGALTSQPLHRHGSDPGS

SMILES strings stand for the structures.

The test concerns the target hERG potassium channels stably expressed in CHO-K1 cells (Homo sapiens, UniProt Q12809). The test is described as follows: cell-based.

One may read the IC50 as the concentration needed to halve the response being measured. `O=C1Cc2cc(CCN3CCN(c4nsc5ccccc45)CC3)c(Cl)cc2N1` [Ziprasidone]: half-maximal inhibition (IC50) was put at 165 nM.
